From patent US20210198277A1, “AMINE-SUBSTITUTED ARYL OR HETEROARYL COMPOUNDS” (Epizyme, Inc., priority 2016, published 2021) come the findings set out here.

The chains behind the UniProt entries cited, without tags or fusion partners. Residues count along the entry.
UniProt Q96KQ7, whole entry: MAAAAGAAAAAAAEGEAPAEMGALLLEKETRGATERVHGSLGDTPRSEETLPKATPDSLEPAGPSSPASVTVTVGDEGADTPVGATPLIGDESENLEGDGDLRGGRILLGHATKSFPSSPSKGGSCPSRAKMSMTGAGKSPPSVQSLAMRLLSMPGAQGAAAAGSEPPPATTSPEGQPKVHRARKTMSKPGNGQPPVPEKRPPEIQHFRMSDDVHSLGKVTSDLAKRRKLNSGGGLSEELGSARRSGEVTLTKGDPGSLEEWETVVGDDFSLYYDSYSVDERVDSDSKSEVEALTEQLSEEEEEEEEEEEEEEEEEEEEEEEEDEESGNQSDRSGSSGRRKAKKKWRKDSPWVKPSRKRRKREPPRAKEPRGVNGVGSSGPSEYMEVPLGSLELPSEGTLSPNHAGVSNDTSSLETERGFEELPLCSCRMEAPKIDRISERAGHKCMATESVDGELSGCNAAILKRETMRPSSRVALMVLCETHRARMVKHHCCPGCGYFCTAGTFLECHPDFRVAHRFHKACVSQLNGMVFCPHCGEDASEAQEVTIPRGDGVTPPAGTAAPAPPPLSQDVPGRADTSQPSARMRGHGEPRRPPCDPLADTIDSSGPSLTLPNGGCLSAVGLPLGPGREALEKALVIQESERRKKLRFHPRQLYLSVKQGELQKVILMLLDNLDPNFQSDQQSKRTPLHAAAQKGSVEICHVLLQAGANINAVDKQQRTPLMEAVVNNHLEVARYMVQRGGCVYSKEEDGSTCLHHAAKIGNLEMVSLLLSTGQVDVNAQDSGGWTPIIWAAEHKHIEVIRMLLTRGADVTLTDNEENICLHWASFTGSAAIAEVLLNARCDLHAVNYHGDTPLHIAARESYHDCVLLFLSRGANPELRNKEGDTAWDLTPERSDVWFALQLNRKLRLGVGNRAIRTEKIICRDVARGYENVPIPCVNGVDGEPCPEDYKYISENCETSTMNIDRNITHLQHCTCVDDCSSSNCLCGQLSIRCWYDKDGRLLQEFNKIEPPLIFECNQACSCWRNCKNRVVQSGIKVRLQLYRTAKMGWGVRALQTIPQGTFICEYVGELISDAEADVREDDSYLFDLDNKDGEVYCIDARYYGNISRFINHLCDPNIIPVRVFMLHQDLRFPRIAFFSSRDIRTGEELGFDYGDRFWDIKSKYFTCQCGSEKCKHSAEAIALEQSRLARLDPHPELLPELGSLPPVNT
UniProt Q96KQ7, 913-1193 limits assumed: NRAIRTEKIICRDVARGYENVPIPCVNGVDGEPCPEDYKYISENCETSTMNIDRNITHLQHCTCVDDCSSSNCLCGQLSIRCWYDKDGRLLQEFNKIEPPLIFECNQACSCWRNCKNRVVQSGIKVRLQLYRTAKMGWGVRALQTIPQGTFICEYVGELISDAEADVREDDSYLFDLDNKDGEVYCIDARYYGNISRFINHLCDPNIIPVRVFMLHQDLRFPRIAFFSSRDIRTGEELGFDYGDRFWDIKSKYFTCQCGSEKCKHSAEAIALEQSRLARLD
UniProt Q9H9B1, whole entry: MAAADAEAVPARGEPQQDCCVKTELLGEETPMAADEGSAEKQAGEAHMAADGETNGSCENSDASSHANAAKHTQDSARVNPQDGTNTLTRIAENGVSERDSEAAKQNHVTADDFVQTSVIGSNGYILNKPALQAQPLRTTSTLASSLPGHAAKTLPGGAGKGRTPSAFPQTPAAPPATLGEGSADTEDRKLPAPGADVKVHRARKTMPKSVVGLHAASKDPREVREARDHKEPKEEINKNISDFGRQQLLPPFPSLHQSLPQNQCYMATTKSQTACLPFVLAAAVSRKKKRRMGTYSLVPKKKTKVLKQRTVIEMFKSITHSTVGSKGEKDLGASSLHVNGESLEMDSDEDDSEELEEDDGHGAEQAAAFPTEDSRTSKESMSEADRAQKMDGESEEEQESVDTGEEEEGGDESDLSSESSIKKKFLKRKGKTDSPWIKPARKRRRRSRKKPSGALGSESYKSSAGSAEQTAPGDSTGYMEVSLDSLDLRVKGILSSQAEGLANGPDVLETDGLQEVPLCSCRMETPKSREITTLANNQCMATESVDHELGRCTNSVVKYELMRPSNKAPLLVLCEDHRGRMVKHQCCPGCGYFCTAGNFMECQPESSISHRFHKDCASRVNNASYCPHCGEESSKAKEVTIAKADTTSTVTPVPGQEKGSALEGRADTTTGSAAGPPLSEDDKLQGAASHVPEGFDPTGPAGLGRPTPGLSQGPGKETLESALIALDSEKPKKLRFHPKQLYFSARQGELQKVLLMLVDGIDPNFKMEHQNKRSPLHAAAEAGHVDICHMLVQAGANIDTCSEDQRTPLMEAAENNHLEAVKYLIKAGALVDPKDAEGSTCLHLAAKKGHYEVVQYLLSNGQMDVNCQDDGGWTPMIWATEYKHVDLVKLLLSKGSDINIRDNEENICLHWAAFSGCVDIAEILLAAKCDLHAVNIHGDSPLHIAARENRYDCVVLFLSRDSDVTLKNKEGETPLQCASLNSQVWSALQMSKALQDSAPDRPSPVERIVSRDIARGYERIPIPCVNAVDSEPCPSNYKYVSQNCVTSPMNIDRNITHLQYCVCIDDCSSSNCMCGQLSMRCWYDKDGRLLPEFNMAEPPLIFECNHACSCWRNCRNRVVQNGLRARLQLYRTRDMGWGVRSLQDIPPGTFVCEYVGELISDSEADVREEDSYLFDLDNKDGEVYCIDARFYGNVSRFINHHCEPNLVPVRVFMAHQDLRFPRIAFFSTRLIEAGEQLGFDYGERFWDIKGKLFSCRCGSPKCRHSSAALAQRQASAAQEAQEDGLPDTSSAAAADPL

One assay has as its target human EHMT2 913-1193 (Homo sapiens, UniProt Q96KQ7). In words: EHMT2 enzyme assay on histone peptide substrate (EHMT2 PEP). In kind it is biochemical.
For the next assay, the target named is EHMT1 (Homo sapiens, UniProt Q9H9B1). Description: EHMT1 enzyme assay on peptide substrate (EHMT1 PEP). The class given is biochemical.
The target in another assay is EHMT2 (Homo sapiens, UniProt Q96KQ7). Description: MDA-MB-231 H3K9me2 in-cell Western assay (EHMT2 ICW). The class given is cell-based.
Where [1] appears, read: read-out: EHMT2 PEP IC50, Table VI.
[2] abbreviates: read-out: EHMT1 PEP IC50, Table VI.
[3] abbreviates: read-out: EHMT2 ICW IC50, Table VI.

Molecules are shown by their SMILES. Like-named read-outs stand apart in the source and are kept apart here. A value given as a limit tells only on which side of the number the result lay.

In general, IC50 refers to the concentration that gives 50% inhibition. Regarding `CNc1cc(C)nc(Nc2ccc(C#N)c(OCCCN3CCCC3)c2)n1`, the 50% inhibitory concentration (IC50) fell in the range of 1 to 10 µM at human EHMT2 913-1193 (setting [1]), 0.1 to 1 µM on EHMT1 (setting [2]) and 1 to 10 µM on EHMT2 (setting [3]).
Turning to `CNc1cc(C)nc(Nc2ccc(OC)c(C#CCN3CCCCC3)c2)n1`, the IC50 was less than 0.1 µM at human EHMT2 913-1193 (setting [1]), less than 0.1 µM on EHMT1 (setting [2]) and 0.1 to 1 µM on EHMT2 (setting [3]).
In the case of `CNc1cc(C)nc(Nc2ccc(OC)c(C#CCN3CCCC3)c2)n1`, the IC50 at human EHMT2 913-1193 (setting [1]) was less than 0.1 µM; at EHMT1 (setting [2]) it was less than 0.1 µM; at EHMT2 (setting [3]) it was 0.1 to 1 µM.
With `CNc1ccnc(Nc2cnc(OC)c(OCC3CCN(C4CC4)C3)c2)n1` (stereo not drawn), the IC50 at human EHMT2 913-1193 (setting [1]), on EHMT1 (setting [2]) and on EHMT2 (setting [3]) was less than 0.1 µM in each case.
With `CNc1cc(C)nc(Nc2ccc(OC)c(OC[C@@H]3CCN(C(C)C)C3)c2)n1` [Compound 1040], the IC50 at human EHMT2 913-1193 (read-out: EHMT2 PEP (IC50 μM), recombinant human EHMT2 913-1193, histone H3 1-15 peptide, balanced conditions) is 1 to 10 µM; on EHMT1 (read-out: EHMT1 PEP (IC50 μM)), 1 to 10 µM; at EHMT2 (read-out: EHMT2 ICW (IC50 μM), H3K9me2 in-cell Western, MDA-MB-231 cells), 1 to 10 µM.
As for `CNc1ccnc(N[C@@H]2CCC[C@H](OCCCN3CCCC3)C2)n1` (relative stereo), the IC50 at human EHMT2 913-1193 (read-out: EHMT2 PEP (IC50 μM), Table III) is greater than 10 µM; on EHMT1 (read-out: EHMT1 PEP (IC50 μM), Table III), greater than 10 µM; on EHMT2 (read-out: EHMT2 ICW (IC50 μM), Table III, MDA-MB-231 H3K9me2 in-cell Western), greater than 10 µM.
As to `CNc1cc(C)nc(Nc2cnc(OC)c(C#CCN3CCCC3)c2)n1`, the half-inhibitory concentration (IC50) fell in the range of 0.1 to 1 µM on human EHMT2 913-1193 (setting [1]), 0.1 to 1 µM on EHMT1 (setting [2]) and 1 to 10 µM at EHMT2 (setting [3]).
Turning to `CNc1cc(C(F)(F)F)nc(Nc2ccc(OC)c(OCCCN3CCCC3)c2)n1` [Compound 362], the 50% inhibitory concentration (IC50) is greater than 10 µM on human EHMT2 913-1193 (read-out: EHMT2 PEP (IC50 μM), Table II); greater than 10 µM on EHMT1 (read-out: EHMT1 PEP (IC50 μM), Table II); greater than 10 µM on EHMT2 (read-out: EHMT2 ICW (IC50 μM), Table II, MDA-MB-231 H3K9me2 in-cell Western).
Turning to `CNc1ccnc(Nc2cnc(OC)c(OCCCN3CCCC3)c2)n1` [Compound 1048], the IC50 at human EHMT2 913-1193 (setting [1]) was 0.1 to 1 µM; at EHMT1 (setting [2]) it was less than 0.1 µM; at EHMT2 (setting [3]), 0.1 to 1 µM.
